The values that follow are results of earlier work, collected in US20040097534A1, “Composition for the protection and regeneration of nerve cells containing berberine derivatives” (EUGENBIO INC., priority 2001, published 2004).

The conditions of this data set: rat, in vivo; cited from earlier work.

Take MK-801: the elimination half-life was 1.9 h.
